From the Kinase Knowledgebase extract (Sharma et al. 2016)

Amino acid sequences for entries named in this document (tags omitted).
UniProt Q16539, whole entry, looked up: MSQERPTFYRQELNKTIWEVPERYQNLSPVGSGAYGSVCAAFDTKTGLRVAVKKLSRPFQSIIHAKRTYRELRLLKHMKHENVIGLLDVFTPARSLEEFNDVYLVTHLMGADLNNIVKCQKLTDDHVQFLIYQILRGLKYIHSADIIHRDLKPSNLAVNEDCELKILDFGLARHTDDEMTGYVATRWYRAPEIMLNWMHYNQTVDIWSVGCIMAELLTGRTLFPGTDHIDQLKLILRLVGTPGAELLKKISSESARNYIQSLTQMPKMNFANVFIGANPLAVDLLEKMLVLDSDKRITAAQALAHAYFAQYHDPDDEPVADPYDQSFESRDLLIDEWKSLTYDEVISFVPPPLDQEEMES

Target: MAPK14 (UniProt Q16539)
Test: Assessment of MAPK14 Kinase Activity Using Spectrophotometric Assay

IC50 | SMILES
41 nM | CC(C)(C)c1cc(NC(=O)Nc2ccc(F)cc2F)n(-c2cccc(CC(N)=O)c2)n1
11 nM | CCOC(=O)Cc1ccc(-n2nc(C(C)(C)C)cc2NC(=O)Nc2cccc(Cl)c2Cl)cc1
